Laboratory results taken from patent US7893077B2, “Bisaryl-sulfonamides” (Amgen Inc., priority 2004, dated 2011).

Chains of the proteins cited; added tags and fusions are not shown.
UniProt P37231, whole entry: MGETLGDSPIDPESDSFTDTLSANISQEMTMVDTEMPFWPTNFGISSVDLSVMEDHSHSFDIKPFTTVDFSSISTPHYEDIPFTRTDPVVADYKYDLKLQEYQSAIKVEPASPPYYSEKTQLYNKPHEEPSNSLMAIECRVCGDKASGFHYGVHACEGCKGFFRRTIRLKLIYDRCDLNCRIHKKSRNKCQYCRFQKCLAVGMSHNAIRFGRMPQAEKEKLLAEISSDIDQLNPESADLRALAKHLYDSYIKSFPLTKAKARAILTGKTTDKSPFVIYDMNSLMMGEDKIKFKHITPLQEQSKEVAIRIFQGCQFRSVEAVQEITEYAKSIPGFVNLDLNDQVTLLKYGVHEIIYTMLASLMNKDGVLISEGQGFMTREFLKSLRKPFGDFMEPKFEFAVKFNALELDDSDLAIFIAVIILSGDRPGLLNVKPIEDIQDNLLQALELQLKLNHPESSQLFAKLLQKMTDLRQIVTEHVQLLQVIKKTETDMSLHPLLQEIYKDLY

Target: PPARγ (Homo sapiens, UniProt P37231)
Experiment: PPARγ ligand binding assay utilizing [3H]-BRL 49653 as the radioligand (filtration)
Details: read-out: PPARγ Binding IC50 Filtration; concentration required to reduce by 50% the specific binding of [3H]-BRL 49653
Source text: The compounds of the present invention can be evaluated for modulation of the PPARγ receptor using assays such as those described in Jiang, et al., Nature 391:82-86 (1998), Ricote, et al., Nature 391:79-82 (1998) and Lehmann, et al., J. Biol. Chem. 270(12): 12953-12956 (1995). Alternatively, the compounds can be evaluated for their ability to displace radiolabeled BRL 49653 from a PPARγ-GST fusion protein as follows:
PPARγ-GST fusion protein (prepared according to standard procedures), [^3H]-BRL 49653 having 50 Ci/mmol specific activity, Polyfiltronics Unifilter 350 filtration plate and glutathione-Sepharose® beads (from Pharmacia: washed twice with 10× binding buffer in which BSA and DTI can be left out).
Binding buffer (10 mM Tris-HCl, pH 8.0, 50 mM KCl, 10 mM DTT, 0.02% BSA and 0.0 1% NP-40) is added in 80-μL amounts to the wells of the filtration plate. The test compound is then added in 10 μL of DMSO. The PPARγ-GST fusion protein and radiolabeled BRL compound are premixed in binding buffer containing 10 mM DTT and added in 10-μL amounts to the wells of the plate to provide final concentrations of 1 µg/well of PPARγ-GST fusion protein and 10 nM [^3H]-BRL 49653 compound. The plate is incubated for 15 min. Glutathione-agarose bead is added in 50 μL of binding buffer, and the plate is vigorously shaken for one hour. The plate is washed four times with 200 μL/well of binding buffer (without BSA and DTT). The bottom of the plate is sealed and 200 μL/well of scintillation cocktail is added. The top of the plate is then sealed and the radioactivity is determined.
IC50 values are defined as the concentration of test compounds required to reduce by 50% the specific binding of [^3H]-BRL 49653 and are represented by (+)<30 μM; (++)<10 μM; (+++)<1 μM.

SMILES | pIC50
O=S(=O)(Nc1ncc(Sc2ccc3ccccc3c2)c(Cl)n1)c1ccc(Cl)cc1Cl | > 5.00
CC(=O)c1cc(NS(=O)(=O)c2ccccc2Cl)cc(Cl)c1Oc1ccc(S(=O)(=O)N2CCOCC2)cc1 | > 5.00
Cc1cc(Oc2ccc(NS(=O)(=O)c3ccc(OC(F)(F)F)cc3)cc2C(=O)N(C)C(C)C)ccc1S(=O)(=O)N1CCCC1 | > 5.00
COc1cccc(S(=O)(=O)Nc2cc(Cl)c(Oc3ccc(S(=O)(=O)N4CCOCC4)cc3)c(C(C)=O)c2)c1 | > 5.00
CCOC(=O)c1cc(NS(=O)(=O)c2ccc(C(F)(F)F)cc2Cl)ccc1Oc1ccc(S(=O)(=O)N2CCOCC2)c(C)c1 | > 4.52
COc1ccc(S(=O)(=O)Nc2cc(Cl)c(Oc3ccc(S(=O)(=O)N4CCOCC4)cc3)c(C(C)=O)c2)cc1 | > 5.00
CC(=O)c1cc(NS(=O)(=O)c2ccc(C)c(Cl)c2)cc(Cl)c1Oc1ccc(S(=O)(=O)N2CCOCC2)cc1 | > 5.00
Cc1cc(NS(=O)(=O)c2ccc(C(F)(F)F)cc2Cl)cc(C(C)O)c1Oc1ccc(S(=O)(=O)N2CCCCC2)cc1 (centres unmarked) | > 6.00
Cc1cc(S(=O)(=O)Nc2cc(Cl)c(Oc3ccc(S(=O)(=O)N4CCCCC4)cc3)c(Cl)c2)c(Cl)cc1Cl | > 6.00
Cc1cc(S(=O)(=O)Nc2cc(Cl)c(Oc3ccc(S(=O)(=O)N4CCOCC4)cc3)c(Cl)c2)c(Cl)cc1Cl | > 6.00
Cc1cc(S(=O)(=O)N2CCOCC2)ccc1Oc1c(Cl)cc(NS(=O)(=O)c2ccc(C(F)(F)F)cc2Cl)cc1Cl | > 6.00
Cc1cc(Oc2ccc(NS(=O)(=O)c3ccc(Cl)cc3Cl)cc2C(=O)N(C)C(C)C)ccc1S(=O)(=O)N1CCCCC1 | > 6.00
CCN(CC1CCCN1)S(=O)(=O)c1ccc(Sc2c(Cl)cc(NS(=O)(=O)c3ccc(C(F)(F)F)cc3Cl)cc2Cl)cc1 (centres unmarked) | > 6.00
O=S(=O)(Nc1cc(Cl)c(Oc2ccc(S(=O)(=O)N3CCCC3)cc2)c(Cl)c1)c1ccc(C(F)(F)F)cc1Cl | > 6.00
Cc1cc(Oc2ccc(NS(=O)(=O)c3cc(F)c(Cl)cc3F)cc2C(=O)N(C)C(C)C)ccc1S(=O)(=O)N1CCCC1 | > 5.00
COCc1cc(NS(=O)(=O)c2ccc(Cl)cc2Cl)ccc1Oc1ccc(S(=O)(=O)N2CCOCC2)cc1 | > 6.00
CN(C)C(=O)c1cc(NS(=O)(=O)c2ccc(Cl)cc2Cl)cc(Cl)c1Oc1ccc(S(=O)(=O)N2CCOCC2)cc1 | > 6.00
CCN(CC)S(=O)(=O)c1ccc(Oc2c(Cl)cc(NS(=O)(=O)c3cc(C)c(Cl)cc3C)cc2Cl)cc1 | > 6.00
CC(=O)c1cc(NS(=O)(=O)c2c(F)cc(F)cc2F)cc(Cl)c1Oc1ccc(S(=O)(=O)N2CCOCC2)cc1 | > 5.00
Cc1cc(S(=O)(=O)Nc2ccc(Oc3ccc(S(=O)(=O)N4CCCCC4)c(C)c3)c(C(=O)NCC(C)C)c2)c(Cl)cc1Cl | > 6.00
Cc1nc(-c2cc(NS(=O)(=O)c3ccc(C(F)(F)F)cc3Cl)ccc2Oc2ccc(S(=O)(=O)N3CCOCC3)cc2)cs1 | > 6.00
Cc1cc(S(=O)(=O)Nc2ccc(Oc3ccc(S(=O)(=O)N4CCCCC4)cc3)c(C(=O)NCC(C)C)c2)c(Cl)cc1Cl | > 6.00
CC(C)C(=O)c1cc(NS(=O)(=O)c2ccc(Cl)cc2Cl)ccc1Oc1ccc(S(=O)(=O)N2CCCCC2)cc1 | > 6.00
N#CCC(=O)c1cc(NS(=O)(=O)c2ccc(Cl)cc2Cl)ccc1Oc1ccc(S(=O)(=O)N2CCCCC2)cc1 | > 5.00
COc1cc(C)ccc1S(=O)(=O)Nc1cc(Cl)c(Oc2ccc(S(=O)(=O)N3CCOCC3)cc2)c(C(C)=O)c1 | > 6.00

Further lines, results first:

pIC50 | SMILES
> 6.00 | Cc1cc(Oc2ccc(NS(=O)(=O)c3ccc(Cl)cc3Cl)cc2C(=O)C2CC2)ccc1S(=O)(=O)N1CCCCC1
> 6.00 | CC(=O)c1cc(NS(=O)(=O)c2ccc(F)c(Cl)c2)cc(Cl)c1Oc1ccc(S(=O)(=O)N2CCOCC2)cc1
> 6.00 | CCN(CC)S(=O)(=O)c1ccc(Oc2c(Cl)cc(NS(=O)(=O)c3cc(C)c(Cl)cc3Cl)cc2Cl)cc1
> 6.00 | CCNC(=O)CCCS(=O)(=O)c1ccc(Sc2c(Cl)cc(NS(=O)(=O)c3ccc(C(F)(F)F)cc3Cl)cc2Cl)cc1
> 6.00 | CCN(CC)S(=O)(=O)c1ccc(Oc2ccc(NS(=O)(=O)c3ccc(Cl)cc3Cl)cc2C(=O)C2CC2)cc1
> 6.00 | Cc1cc(S(=O)(=O)Nc2ccc(Oc3ccc(S(=O)(=O)N4CCCCC4)cc3)c(COC(C)C)c2)c(Cl)cc1Cl
> 6.00 | CC(C)CNC(=O)c1cc(NS(=O)(=O)c2ccc(Cl)cc2Cl)ccc1Oc1ccc(S(=O)(=O)N2CCCCC2)cc1
> 6.00 | O=S(=O)(Nc1ccc(Oc2ccc(S(=O)(=O)N3CCOCC3)cc2)cc1)c1cc(Cl)c(Cl)cc1Cl
> 6.00 | Cc1cc(NS(=O)(=O)c2ccc(Cl)cc2Cl)ccc1Oc1ccc(S(=O)(=O)N2CCOCC2)cc1
> 6.00 | CCN(C(C)C)S(=O)(=O)c1ccc(Oc2c(Cl)cc(NS(=O)(=O)c3ccc(C(F)(F)F)cc3Cl)cc2Cl)cc1
> 6.00 | CCOCc1cc(NS(=O)(=O)c2ccc(Cl)cc2Cl)ccc1Oc1ccc(S(=O)(=O)N2CCOCC2)cc1
> 6.00 | CC(=O)c1cc(NS(=O)(=O)c2ccc(OC(F)(F)F)cc2)cc(Cl)c1Oc1ccc(S(=O)(=O)N2CCOCC2)cc1
> 6.00 | O=C(O)CCCS(=O)(=O)c1ccc(Sc2c(Cl)cc(NS(=O)(=O)c3ccc(C(F)(F)F)cc3Cl)cc2Cl)cc1
> 6.00 | CCc1cc(S(=O)(=O)N2CCOCC2)ccc1Oc1c(Cl)cc(NS(=O)(=O)c2ccc(C(F)(F)F)cc2Cl)cc1Cl
> 6.00 | CC(C)S(=O)(=O)c1ccc(Oc2c(Cl)cc(NS(=O)(=O)c3ccc(C(F)(F)F)cc3Cl)cc2Cl)cc1
> 6.00 | CCOC(=O)c1cc(NS(=O)(=O)c2cc(C)c(Cl)cc2Cl)ccc1Oc1ccc(S(=O)(=O)N(CC)CC)c(C)c1
> 6.00 | CCN(CC)S(=O)(=O)c1ccc(Oc2c(Cl)cc(NS(=O)(=O)c3cc(C)c(Cl)cc3Cl)cc2C(C)=O)cc1C
> 6.00 | CC(=O)c1cc(NS(=O)(=O)c2ccc(C#N)cc2)cc(Cl)c1Oc1ccc(S(=O)(=O)N2CCOCC2)cc1
> 6.00 | CCCC(=O)c1cc(NS(=O)(=O)c2ccc(Cl)cc2Cl)ccc1Sc1ccc(S(=O)(=O)N2CCOCC2)cn1
> 6.00 | CC(=O)c1cc(NS(=O)(=O)c2ccc(Cl)cc2Cl)ccc1Oc1ccc(S(=O)(=O)N2CCOCC2)cc1
> 6.00 | CC(=O)c1cc(NS(=O)(=O)c2ccc(Cl)cc2Cl)ccc1Oc1ccc(S(=O)(=O)N2CCCC2)c(C)c1
> 6.00 | Cc1cc(S(=O)(=O)Nc2ccc(Oc3ccc(S(=O)(=O)N4CCCCC4)c(C)c3)c(C(=O)N(C)C(C)C)c2)c(Cl)cc1Cl
> 6.00 | CC(=O)c1cc(NS(=O)(=O)c2cc(C)c(Cl)cc2Cl)cc(Cl)c1Oc1ccc(S(=O)(=O)N2CCCCC2)cc1
> 6.00 | CCN(CC)S(=O)(=O)c1ccc(Oc2c(Cl)cc(NS(=O)(=O)c3cc(C)c(Cl)cc3Cl)cc2C(C)=O)cc1
> 6.00 | CC(C)N(C)C(=O)c1cc(NS(=O)(=O)c2ccc(Cl)cc2Cl)ccc1Oc1ccc(S(=O)(=O)N2CCCCC2)cc1
> 6.00 | Cc1cc(S(=O)(=O)Nc2ccc(Sc3ccc(S(=O)(=O)N4CCCCC4)cc3)cn2)c(Cl)cc1Cl [Compound 67, 2,4-Dichloro-5-methyl-N-{5-[4-(piperidine-1-sulfonyl) -phenylsulfanyl]-pyridin-2-yl}-benzenesulfonamide]
> 6.00 | O=C(c1cc(NS(=O)(=O)c2ccc(C(F)(F)F)cc2Cl)ccc1Oc1ccc(S(=O)(=O)N2CCCCC2)cc1)C1CCCCC1
> 6.00 | CCCC(=O)c1cc(NS(=O)(=O)c2ccc(Cl)cc2Cl)ccc1Oc1ccc(S(=O)(=O)N(CC)CC)cc1

pIC50: −log10 of the molar value.
